HCMV NEC inh: inhibitors of HCMV UL50-UL53 nuclear egress complex interaction | HTRF UL50-UL53 interaction, normalized percent inhibition | inhibition, % (no concentration beside the values) | hit rate 0.15% among 190,000 | AID 1918969; in the data active = inhibition above about 27%, passing the limit was not always enough
GIV Gai3 FP: inhibitors of GIV GBA-motif binding to rat Galpha-i3; percent of control (FP), % (concentration not given with the values); AID 1224905; Galpha-i3/FITC-GIV peptide fluorescence polarization, 90 min; stronger effect = lower value; scaled: aluminum fluoride 0%, vehicle 100%; 210,000 compounds, 0.42% hits; P08753;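 active means replicate mean at 85% of control or lower, very high polarization wells dropped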;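 further: wells of about 15 µL received 100 nL stock; the first replicate is given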
Of the large screens only hits and unclear results are named; the others gave an inactive call. The full list was thinned out, with hits kept by preference.

O=c1oc2ccccc2cc1-c1csc(N2N=C3/C(=C/c4ccccc4)CCCC3C2c2ccccc2)n1 (configuration not stated)	none (no result: HCMV NEC inh)
O=C(NCc1ccc2c(c1)OCO2)c1cc2ccccc2s1	none
Cc1noc(C)c1CSc1nc2c(sc3ncccc32)c(=O)n1CC(C)C	HCMV NEC inh 38
CCc1cc2c(=O)n(Cc3ccccc3)c(SCc3c(C)noc3C)nc2s1	none (no result: GIV Gai3 FP)
CNC(=O)c1cc(NS(=O)(=O)c2ccc(Cl)cc2)cnc1N1CCNCC1	none (no result: HCMV NEC inh)
CC(C)Sc1nc2ccccc2n1CC(=O)N1c2ccccc2CC1C (configuration not stated)	none (no result: GIV Gai3 FP)
CCOC(=O)c1c2c(n3ccccc13)C(=O)c1ccccc1C2=O	GIV Gai3 FP -42 (no result: HCMV NEC inh)
CCOC(=O)C1=C(O)c2ccccc2C1=O	none (no result: HCMV NEC inh)
CCCCCCc1cc2cc(C#N)c(=O)oc2cc1O	GIV Gai3 FP -3.8
CCN(CC)c1ccc2cc(C#N)c(=O)oc2c1	none (no result: GIV Gai3 FP)
C=C(C)CN(CC)c1nc(N)c2c(N)nc3c(c2c1C#N)CC(=O)N3C12CC3CC(CC(C3)C1)C2	none (no result: GIV Gai3 FP)
N#Cc1c(N2CCCC(O)C2)nc(N)c2c(N)nc3c(c12)CC(=O)N3C12CC3CC(CC(C3)C1)C2 (configuration not stated)	HCMV NEC inh 80 (no result: GIV Gai3 FP)
CCOC(=O)C1CCN(C(=O)COC(=O)c2ccc(C#N)cc2)CC1	none (no result: GIV Gai3 FP)
CNc1ccc(O)cc1	HCMV NEC inh 69 (no result: GIV Gai3 FP)
Oc1ccc(NC(=S)Nc2ccc(O)cc2)cc1	none
Clc1ccc(-c2nnnn2Cc2ccccc2)cc1	none
CCc1c(C)nc2ncnn2c1Nc1cc(Cl)c(OC)cc1OC	none
Cc1nn(-c2ccccc2)c2c1N(C(=O)CCC(=O)NCCc1c[nH]c3ccccc13)CCS2	none
CCN(CC)c1ccc2cc(-c3nc4ccccc4c(=O)[nH]3)c(=N)oc2c1	GIV Gai3 FP 8.2
CCN(CC)c1ccc2cc(-c3c(O)c4ccccc4[nH]c3=O)c(=O)oc2c1	none (no result: GIV Gai3 FP)
CCN(CC)c1ccc2cc(C(=O)Nc3ccccc3)c(=N)oc2c1	GIV Gai3 FP 73 (no result: HCMV NEC inh)
CCN(CC)c1ccc2cc(C(=O)Nc3ccc(C)cc3)c(=N)oc2c1	none
CCC(=O)N(Cc1ccc(OC)cc1)C1CC(=O)N(c2ccc(OC)cc2)C1=O (configuration not stated)	none
CCN(CC(=O)NCc1cccs1)C(=O)Cc1csc(-c2ccccc2)n1	none (no result: GIV Gai3 FP)
CN1CCN(C2=NC(=O)/C(=C/c3ccc(Cl)cc3)S2)CC1	none (no result: HCMV NEC inh)
CCOc1cc(/C=C2/SC(=Nc3ccccc3)NC2=O)cc(Br)c1O	none
CCOc1cc(/C=C2/SC(=S)N(C)C2=O)cc(Br)c1O	GIV Gai3 FP -47
Cc1cc(C)c(S(=O)(=O)N2CCN(Cc3ccc4c(c3)OCO4)CC2)cc1C	none
Cc1csc(-c2cc(S(=O)(=O)N3CCN(Cc4ccc5c(c4)OCO5)CC3)c(C)s2)n1	GIV Gai3 FP -0.1 (no result: HCMV NEC inh)
CN1/C(=C\C(=O)CSCCO)C(C)(C)c2ccccc21	none (no result: GIV Gai3 FP)
Nc1cccc(-c2ncon2)c1	HCMV NEC inh 83
Nc1cccc(-c2cnco2)c1	none
O=C1CC(=O)N(Cc2ccco2)C(=O)N1	HCMV NEC inh 87, GIV Gai3 FP 59
O=C1CC(=O)N(Cc2cccs2)C(=O)N1	none
Cc1n[nH]c(C)c1Sc1ccccc1NC(=O)c1ccc(F)cc1	none (no result: GIV Gai3 FP)
CC(C)CNc1cc(NCCO)c2c3c(onc13)-c1ccccc1C2=O	GIV Gai3 FP -54 (no result: HCMV NEC inh)
CC(C)CNc1cc(Cl)c2noc3c2c1C(=O)c1ccccc1-3	GIV Gai3 FP -55 (no result: HCMV NEC inh)
CC1CC(C)CN(c2cc(NCCO)c3c4c(onc24)-c2ccccc2C3=O)C1 (configuration not stated)	none
CCCCNc1cc(NC2CCCCC2)c2c3c(onc13)-c1ccccc1C2=O	none
O=C1c2ccccc2-c2onc3c(NCCO)cc(NC4CCCCC4)c1c23	GIV Gai3 FP 45
Cc1ccc(Sc2cc(Cl)c3noc4c3c2C(=O)c2ccccc2-4)cc1	none (no result: HCMV NEC inh)
CN1C(=O)c2cc(NC(=O)c3ccc(N(C)C)cc3)ccc2N2CCN=C12	none
COc1cc(Cl)ccc1C(=O)N1CCC(Cn2cc(C3CC3)nn2)CC1	none (no result: GIV Gai3 FP)
CN1C(=O)COc2cc(-c3noc(C(=O)NCc4ccccn4)n3)ccc21	none (no result: HCMV NEC inh)
COc1cc(C2C(C#N)=C(N)Oc3n[nH]c(-c4cc(OC)c(OC)c(OC)c4)c32)cc(OC)c1O (configuration not stated)	none
Cn1nc(C(=O)N2CCCC(C(=O)Nc3ccccc3)C2)c2c1CCN(C(=O)C(C)(C)C)C2 (configuration not stated)	none (no result: HCMV NEC inh)
O=C1/C(=C/c2ccc(N3CCOCC3)cc2)CC/C1=C\c1ccc(N2CCOCC2)cc1	none (no result: HCMV NEC inh)
CN(C)c1ccc(/C=C2\Cc3ccccc3C2=O)cc1	GIV Gai3 FP -75 (no result: HCMV NEC inh)
CCn1c2ccccc2c2cc(/C=C3\CCC(C4CCCC4)C3=O)ccc21 (configuration not stated)	none (no result: HCMV NEC inh)
CCn1c2ccccc2c2cc(/C=C3\Cc4ccccc4C3=O)ccc21	GIV Gai3 FP -74 (no result: HCMV NEC inh)
O=C1/C(=C/c2ccc(N3CCOCC3)cc2)Cc2ccccc21	GIV Gai3 FP -75 (no result: HCMV NEC inh)
O=C1NC(=O)C(=Cc2ccc(N3CCCC3)cc2)C(=O)N1	none
O=C1C(=Cc2ccc(N3CCCC3)cc2)C(=O)c2ccccc21	GIV Gai3 FP -61
CN(C)c1ccc(/C=C2\CCC/C(=C\c3ccccc3)C2=O)cc1	none (no result: HCMV NEC inh)
O=C1c2cccc3c2C(CCC3)CN1C1CN2CCC1CC2 (configuration not stated)	none (no result: GIV Gai3 FP)
N#Cc1c(N)nc(SCC(=O)c2ccc(Br)cc2)c(C#N)c1-c1ccc(O)cc1	none
N#Cc1c(N)nc(SCC(=O)c2ccccc2)c(C#N)c1-c1ccc(O)cc1	HCMV NEC inh 30
CCOC(=O)c1ccccc1NC(=O)Cn1c(=O)n(CCc2nc(-c3ccccc3)no2)c(=O)c2ccccc21	none
NC(=O)C1CCN(CCC(=O)Nc2ccccc2)CC1	none (no result: GIV Gai3 FP)
N#C/C(=C\c1[nH]c2ccccc2c1O)C(=N)N1CCOCC1	GIV Gai3 FP -18 (no result: HCMV NEC inh)
COc1ccc(N=C(N)/C(C#N)=C/c2[nH]c3ccccc3c2O)cc1	none (no result: HCMV NEC inh)
CCC(CC)(CN(C)C)OC(=O)c1ccccc1	none (no result: GIV Gai3 FP)
Fc1ccc(CSc2nnc3n2CCN3c2ccccc2)cc1	none
N#Cc1c(-c2ccco2)cc(-c2cccs2)nc1N	none
Nc1c(C(=O)c2cccs2)oc2nc(-c3cccs3)cc(-c3ccco3)c12	GIV Gai3 FP -54
O=C(Cc1n[nH]c(=O)c2ccccc12)OCc1ccc(F)cc1	none (no result: GIV Gai3 FP)
COc1ccc(N(C=O)/C=C2\Sc3ccccc3C2=O)cc1	GIV Gai3 FP -15
COc1ccc(N(/C=C2\Sc3ccccc3C2=O)C(=O)c2ccco2)cc1	none
N#Cc1cc2cc3c(cc2nc1SCC(=O)NC1CCCCC1)OCCO3	none
O=C(OCC1CC1)c1sc2ccccc2c1Cl	none
Cc1cc(C)c(S(=O)(=O)Nc2cnc(N3CCCC3)c(C(=O)O)c2)cc1C	GIV Gai3 FP 72
COc1ccc(OC)c(S(=O)(=O)Nc2cnc(N3CCCC3)c(C(=O)O)c2)c1	none
Oc1ccccc1C(O)C(F)(F)F (configuration not stated)	none (no result: GIV Gai3 FP)
N#Cc1c(N)oc(-c2ccc3c(c2)OCO3)c1-c1ccc2c(c1)OCO2	GIV Gai3 FP -54
N#Cc1c(-c2ccc3c(c2)OCO3)cc(-c2ccc(F)cc2)nc1N	none
COc1cccc(NC(=O)c2c(Cl)nc3sccn23)c1	none (no result: GIV Gai3 FP)
CCCCCN1/C(=C\C=C\c2n(CCCC)c3cc(Cl)c(Cl)cc3[n+]2CCCCC)N(CCCC)c2cc(Cl)c(Cl)cc21	GIV Gai3 FP -62 (no result: HCMV NEC inh)
CCCCCCC(CC[n+]1c(/C=C/C=C2N(CC)c3cc(Cl)c(Cl)cc3N2CC)n(CC)c2cc(Cl)c(Cl)cc21)S(=O)(=O)[O-] (configuration not stated)	none (no result: HCMV NEC inh)
